Source: PubChem BioAssay (NCI)
“And” between values parts separate entries of the source, which are not always exact repeats. Equal values may be shown once. The entries are a selection whose mix differs from that of the whole data set. Some results for these compounds are left out of this collection, so the calls shown say nothing about other tests.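 Each cell line was grown in a 96-well plate and treated with one concentration of compound for 48 hours. Values below 10 were considered active.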 The source made the active and inactive calls.

These compounds were tested on MDA-MB-468 breast (assay: NCI-60 one-dose screen, 48 h (100 = growth as untreated, 0 = no growth, -100 = all killed)). Details: 10 µM.

SMILES	growth
N#CC(C#N)=Cc1ccc(Br)cc1	inactive: 105% and inactive: 101%
ClCCCCCC(CCl)NCCCl (centres undefined)	inactive: 79.5%
CN(C)CCOC(=O)C(O)(c1ccccc1)c1ccccc1	inactive: 118%
CCCN(CCCl)CCCl	inactive: 96.1%
CC[N+](C)(C)Cc1cccc(Cc2ccccc2)c1OC(=O)N(C)C	inactive: 109%
COCc1c(CN(CCCl)CCCl)cnc(C)c1O	inactive: 94.3%
ClCCN(CCCl)C1CCCCC1	inactive: 92.4%
N#CC(C#N)=Cc1cccc(Br)c1	inactive: 107%
CCNCCCl	inactive: 115%
O=C(OCCN1CCCC1)C(O)(c1ccccc1)c1ccccc1	inactive: 114%
COc1ccc(N=C=S)cc1CN(CCCl)CCCl	inactive: 54%
ClCCN(CCCl)Cc1cc(Cl)cc(Cl)c1	inactive: 81.8%
ClCCN(CCCl)Cc1ccc(Cl)c(Cl)c1	inactive: 98.5%
Cc1cc2nc(CN(CCCl)CCCl)[nH]c2cc1C	inactive: 55.2%
ClCCN(CCCl)C1c2ccccc2-c2ccccc21	inactive: 93%
ClCCN(CCCl)Cc1ccsc1Br	inactive: 95.1%
CN(CCBr)CCBr	inactive: 101%
CC(=O)CI	inactive: 102%
Fc1cccc(CN(CCCl)CCCl)c1	inactive: 102%
CCOc1ccc([N+](=O)[O-])cc1CN(CCCl)CCCl	inactive: 106%
N#CC(C#N)=Cc1ccccc1Cl	inactive: 98.5%
COc1ccc([N+](=O)[O-])cc1CN(CCCl)CCCl	inactive: 101%
BrCCN(CCBr)Cc1ccccc1	inactive: 110%
CC(C)(C)N(CCCl)CCCl	inactive: 92.9%
